{
  "source": "BindingDB's records for doi:10.1021/bi400413c",
  "about": "(Stony Brook University, 2013)",
  "biological_target": "T1, Enoyl-[acyl-carrier-protein] reductase [NADPH] FabI (Staphylococcus aureus (strain MRSA252), UniProt Q6GI75)",
  "T1 sequence (Q6GI75 whole entry)": "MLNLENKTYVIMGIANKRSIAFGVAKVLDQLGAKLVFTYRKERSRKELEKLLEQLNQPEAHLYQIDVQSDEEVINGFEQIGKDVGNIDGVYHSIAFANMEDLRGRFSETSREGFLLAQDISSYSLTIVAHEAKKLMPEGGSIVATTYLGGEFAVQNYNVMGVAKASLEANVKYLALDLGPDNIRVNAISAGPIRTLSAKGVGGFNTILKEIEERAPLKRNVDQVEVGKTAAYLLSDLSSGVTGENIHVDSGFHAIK",
  "experiment": "Thermal Shift Assay",
  "conditions": "pH 7.5",
  "protocol": "ThermoFluor experiments were carried out in 96-well plates (Concord) using the CFX96 RealTime PCR Detection system and C1000 Thermal Cycler (BioRad).",
  "data": [
    {"smiles": "CCc1ccc(Oc2ccccc2)c(O)c1", "note": "[PT01]", "values": [
      {"measurement": "Ki", "value": 0.09, "unit": "nM"}
    ]}
  ]
}
